Measurements published in article PMC9933440 (Crystal Growth & Design, 2022).

What was measured:
[1] = Solubility experiments in sodium phosphate buffer pH 6.5, 37 °C (HPLC)
Method: Solubility experiments were conducted in sodium phosphate buffer solutions at pH 6.5 and 37 °C to simulate intestinal physiological conditions. For each experiment, an excess crystalline solid was sieved through a 300 μm sieve and introduced into a flask with a screw top containing 100 mL of the medium. The solution was stirred at 200 rpm using a magnetic stir bar for 48 h to reach the equilibrium state. […] After each sampling, the volume of the liquid removed from the suspension was not compensated. The withdrawn suspension was filtered through 0.2 μm nylon filters and diluted prior to high-performance liquid chromatography (HPLC) analysis. The solubility experiment for each crystal form was repeated in triplicate. After the last sample collection, the remaining solid material in the suspension was filtered, dried, and characterized by IR and PXRD.
A C18 HPLC column (YMC-Pack ODS-A column, 4.6 mm × 250 mm, 5 μm) with a flow rate of 1 mL min^–1 was employed, and the column temperature was set at 25 °C. The binary mobile phase consisted of acetonitrile and sodium phosphate buffer (pH 6.5) in a volume ratio of 25:75. The samples were diluted appropriately with the mobile phase, and the absorbance was measured at 347 nm.

[2] = pH 1.2; cited from earlier work

## C1CNCCN1.Cc1cnc(NC(=O)C2=C(O)c3ccccc3S(=O)(=O)N2C)s1.Cc1cnc(NC(=O)C2=C(O)c3ccccc3S(=O)(=O)N2C)s1 [MEL-PPZ]
[1]; highest dissolved concentration, sodium phosphate buffer pH 6.5, 37 °C
  dissolved MEL: 0.28 ± 0.03 mg mL^–1
[1]; pH 6.5
  apparent solubility compared with the pure API: higher solubility at pH 6.5
[1]; pH 6.5, 37 °C
  dissolved MEL, times higher than that of the pure MEL: 3.3 times

## CN1C(C(=O)Nc2ccccn2)=C(O)c2ccccc2S1(=O)=O.COC(=O)c1ccc(O)cc1 [PRM methylparaben]
[2]
  solubility vs parent API: no solubility and IDR advantages
